Assay results reported in patent publication US20040038828A1 (priority 2002, published 2004).

Legend:
[1] = system: Strawberries (Fragaria X ananassa Duchesne); assay: Field study Salinas, strawberry fruit yield and dead plants
Little mallow = assay: Field study Salinas, weed biomass; conditions: Salinas plots; rate 400 lbs acres^−1
Annual Bluegrass = assay: Field study Watsonville, weed biomass; conditions: Watsonville plots; rate 400 lbs acres^−1
[2] = system: Strawberries (Fragaria X ananassa Duchesne); assay: Field study Watsonville, strawberry fruit yield and dead plants
[3] = drip applied, 400 pound per acre, preplant

2-bromoethanol was tested, and the “percentage of dead plants (MB:CP versus 2-bromoethanol)” value ([1]; P<0.05) was “not significantly different”, the “fruit yield relative to MB:CP fumigation” value [1, 3] was 115% and the “weed biomass, Little mallow” value (Little mallow) was 4.2 gram/m^2. The “weed biomass, Annual Bluegrass” value (Annual Bluegrass) was 5.9 gram/m^2, the “fruit yield relative to MB:CP fumigation” value [2, 3] was greater than 95% and the “percentage of dead strawberry plants (compared with untreated control)” value ([2]; soil infested with Verticillium dahliea) was “greater in the untreated control”.
